Target: T1, YbiB WT (Escherichia coli BW25113, UniProt P30177 1-320)
T1 sequence: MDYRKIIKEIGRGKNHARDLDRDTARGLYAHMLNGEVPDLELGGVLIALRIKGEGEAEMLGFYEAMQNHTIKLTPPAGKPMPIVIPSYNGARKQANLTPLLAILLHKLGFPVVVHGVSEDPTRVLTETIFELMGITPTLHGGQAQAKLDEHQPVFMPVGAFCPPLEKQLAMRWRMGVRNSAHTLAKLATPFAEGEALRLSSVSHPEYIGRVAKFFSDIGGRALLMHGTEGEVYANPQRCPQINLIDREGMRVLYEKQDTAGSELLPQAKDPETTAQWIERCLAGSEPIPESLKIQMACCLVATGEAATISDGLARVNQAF
Assay: EMSA; apparent KD, Hill fit; subunit concentration; EMSA: 20 mM HEPES pH 7.5, 150 mM NaCl, 5 mM MgCl2, 2 mM DTT, 5% glycerol, 30 min at 37 C; 6% PAGE in 1x TBE at room temperature
Conditions: protein: recombinant; tags: N-terminal His6, thrombin site (pET28a); chain copies: 2; label: 5'-32P; single strand

B1: EMSA_probe (58-nt ssDNA) (ssDNA)
DNA: GCTTTTGATGTACCAATGCATCACCATCACCATCAGGAAATGGGTAAGATGCTTGTAG
B1 showed a Kd of about 850 nM.

— article PMC10123104, “YbiB: a novel interactor of the GTPase ObgE”
